{
  "source": "patent US20210346665A1",
  "about": "“CONDUCTIVE MICRONEEDLE PATCH FOR ACTIVE AGENT DELIVERY” (Singapore Health Services Pte Ltd, priority 2018, published 2021)",
  "test": "drug loading and release from MeHA MN patches in PBS",
  "assay_type": "physicochemical",
  "conditions": "10 minutes incubation with drug solution in PBS",
  "description": "The drug loading capabilities of MeHA MNs was investigated by using model drugs of different molecular weights, mainly fluorescein isothiocyanate (FITC), FITC-Dextran and doxorubicin hydrochloride (Dox). The innate ability of the MeHA MN arrays to absorb fluid is taken advantage of to load the drug molecules into the MN tips. All three drugs are dissolved in PBS which were then used to equilibrate MeHA MN patches. After 10 minutes of incubation with the drug solution, the MNs were left to dry in the fumehood (FIG. 14). The amount of drug encapsulated in the MN was determined by immersing the drug loaded MeHA in 1×PBS. By obtaining a 50 μL of the solution at various time points, the fluorescence intensity was measured to determine the drug release profile of the three different drug molecules. […] FITC and FITC-Dextran with low molecular weights (3 to 5 kDa) were easily loaded into the MN tips as compared to bigger Dox molecules (20 kDa).\nNext, the release profiles of drugs from the MeHA MN patches were examined. As depicted in FIG. 3B, more than 80% of FITC and FITC-Dextran were released from the MN patches within 30 minutes.",
  "data": [
    {"substance": "FITC-Dextran", "values": [
      {"measurement": "loading into the MN tips through swelling", "value": "easily loaded"}
    ]}
  ]
}
